Here are results for three molecules from patent US20260184748A1, “COMPOSITIONS COMPRISING OCTADECANEUROPEPTIDES (ODN) AND SYNTHETIC DERIVATIVES THEREOF AND METHODS OF USE FOR MODULATION OF FOOD INTAKE, OBESITY, BODY WEIGHT, NAUSEA, AND EMESIS” (The Trustees of the University of Pennsylvania, priority 2022, published 2026).

By UniProt entry, the sequences of proteins in these tests, tags left out. Where a name states a change or a piece, a line headed by the entry shows the natural chain unless it says otherwise.
UniProt P47900: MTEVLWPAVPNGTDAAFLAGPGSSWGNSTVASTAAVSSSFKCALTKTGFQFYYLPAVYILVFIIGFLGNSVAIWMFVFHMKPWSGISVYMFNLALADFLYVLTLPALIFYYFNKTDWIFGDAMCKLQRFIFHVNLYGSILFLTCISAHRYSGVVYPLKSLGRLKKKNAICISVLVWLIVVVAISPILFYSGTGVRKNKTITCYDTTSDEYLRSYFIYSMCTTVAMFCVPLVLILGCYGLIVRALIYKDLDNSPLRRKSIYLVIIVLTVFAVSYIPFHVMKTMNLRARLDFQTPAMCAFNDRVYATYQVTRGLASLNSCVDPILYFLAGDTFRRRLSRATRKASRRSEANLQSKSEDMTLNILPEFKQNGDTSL
UniProt P43116: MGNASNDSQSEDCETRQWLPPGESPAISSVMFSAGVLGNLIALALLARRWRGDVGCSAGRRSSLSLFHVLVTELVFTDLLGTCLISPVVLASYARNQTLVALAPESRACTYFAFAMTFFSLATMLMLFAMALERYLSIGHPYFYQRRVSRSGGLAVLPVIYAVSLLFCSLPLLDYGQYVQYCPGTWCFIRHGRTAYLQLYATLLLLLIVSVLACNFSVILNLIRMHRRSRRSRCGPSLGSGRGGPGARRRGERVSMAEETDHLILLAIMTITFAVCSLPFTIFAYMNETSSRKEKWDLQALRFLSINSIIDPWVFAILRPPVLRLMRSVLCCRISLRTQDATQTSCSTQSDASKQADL

pEC50: −log10 of the molar value. “Also recorded” adds a separate entry of the source.

The target in one data set is P2RY1 (Homo sapiens, UniProt P47900). Kind of data set: Arrestin agonist mode. The data set is classed as cell-based. To be noted: read-out: RC50 (the source's name).
A further data set has as its target PTGER2 (Homo sapiens, UniProt P43116). Kind of data set: Arrestin agonist mode. The data set is classed as cell-based. To be noted: read-out: RC50 (the source's name).
Data set [1] in a line: Kaolin intake (pica) in rats. The class given is in vivo, rat. Conditions: 4th ventricle injection.

On to `CSc1nc(N)c2ncn([C@@H]3O[C@H](COP(=O)(O)OP(=O)(O)O)[C@@H](O)[C@H]3O)c2n1`, for which, at P2RY1, the pEC50 was 7.69.

`CCCCC[C@H](O)/C=C/[C@H]1[C@H](O)CC(=O)[C@@H]1C/C=C\CCCC(=O)O` [Prostaglandin E2]: the pEC50 at PTGER2 is 6.16.

With exendin-4 [Ex-4], the results for the kaolin intake result in data set [1] (HFD-maintained rats) and in data set [1] (chow-maintained rats) were “increased kaolin intake” and “increased kaolin consumption in chow-maintained rats relative to controls; also recorded: increased kaolin intake”, respectively.
